Values of other authors in patent US20080003250A1, “NOVEL THERAPY FOR HERPESVIRUS INFECTION” (priority 2006, published 2008).

Details: oral, relative to ACV; cited from earlier work

Substance: ACV-valylchenodeoxycholate
- increase in bioavailability: two-fold
